From US4454158A, “Allyl amine MAO inhibitors” (Merrell Toraude et Compagnie, priority 1981, dated 1984)

Tests used:
MAO [1] = assay: Inhibition of MAO - In vitro (14C p-tyramine substrate, partially purified rat brain mitochondria); type: biochemical; settings: tested as hydrochloride salt, read-out: IC50 (MAO inhibitory activity - In vitro)
From the text: (A) The ability of a compound of Formula I or II to inhibit MAO can be determined in vitro by the method of A. Christmas et al, Br. J. Pharmacol. 45, 490 (1972) in partially purified mitochondria from rat brain using ^14 C p-tyramine as the substrate.

MAO-A and MAO-B = settings: literature, cited from earlier work; for dose-dependence of MAO selectivity (in words): lower vs higher dosages
MAO [2] = assay: Inhibition of MAO - Ex vivo, rat (14C p-tyramine substrate); type: in vivo; settings: 18 hr
Procedure: The ability of a compound of Formula I or II to inhibit MAO can be determined ex vivo by the following procedure:
The test compound is administered intraperitoneally (ip), intravenously (iv), or orally (po) to rats or mice and the animals are killed at various times after treatment. […] MAO activity is determined in the homogenates using ^14 C p-tyramine, as the substrate. […] Selectivity can be determined by repeating the above-described test using either ^14 C 5-hydroxytryptamine (for MAO-A) or ^14 C phenethylamine (for MAO-B) as the substrate for determining the % inhibition

MAO-B versus MAO-A = assay: Selectivity of MAO inhibitors - In vitro (14C 5-hydroxytryptamine for MAO-A, 14C phenethylamine for MAO-B); type: biochemical; settings: rat brain mitochondria
Procedure: Mitochondria are prepared from rat brain by homogenation in phosphate buffer (0.1 M, pH 7.2) followed by differential centrifugation. The mitochondria are suspended in the same buffer, the test compound is added at the desired concentration, and the system is incubated. […] Christmas, et al, supra).
Selectivity is expressed as the ratio of the inhibitory activity against MAO-B versus the inhibitory activity against MAO-A.

SMILES	IC50 (MAO [1])	preferential inhibition of MAO-A or MAO-B (in words) (MAO-A and MAO-B)	dose-dependence of MAO selectivity (in words) (MAO-A and MAO-B)	% Inhibition of MAO - Brain (MAO [2]; 0.5 mg/kg po)	% Inhibition of MAO - Brain (MAO [2]; 5.0 mg/kg po)	% Inhibition of MAO - Brain (MAO [2]; 10.0 mg/kg po)	Selectivity (ratio of inhibitory activity against MAO-B versus MAO-A) (MAO-B versus MAO-A)
C#CCN(C)[C@H](C)Cc1ccccc1 [L-deprenyl, reference compound]	100 nM	MAO-B is preferentially inhibited	selective inhibitors at lower dosages, but are not selective inhibitors at higher dosages	16%	39%	88%	100
C#CCN(C)CCCOc1ccc(Cl)cc1Cl [clorgyline, reference compound]		MAO-A is preferentially inhibited	selective inhibitors at lower dosages, but are not selective inhibitors at higher dosages				0.001
